Key:
[1] = PAMPA-BBB, prediction of CNS permeability
[2] = system: primary porcine brain endothelial cells (PBECs); conditions: cited from earlier work
[3] = set-up: method as in PMID 27992940; conditions: cited from earlier work

Substance: Asiaticoside
- PAMPA-BBB (Pe) Experimental permeability ([1]; PBS: DMSO (95 : 5), 18 h, mean ± SEM): 0.26 ± 1.0 10^−6 cm s^−1
- Prediction of CNS penetration ([1]; class from experimental Pe, limits of Di et al., 2003): CNS− (CNS−, low BBB permeation predicted; Pe, 10–6 cm s^−1 < 2.0)
- BBB permeability in in vitro BBB model [2]: highly BBB permeable
- Apparent oral bioavailability [3]: less than 1%
